From PubChem BioAssay AID624204 (Sanford-Burnham Center for Chemical Genomics, 2012)
The list shows a part of the results, in another mix than the full data. The source made the active and inactive calls.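 The calls were made as follows: active = inhibition at least 30% at 10 µM, raw YFP signal under a set limit, fluorescence ratio 0.5 to 1.5; inactive = the rest.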

Sequences of proteins named here, by UniProt entry; tags and fusion partners are left off. Residues count along the entry.
UniProt Q9P0U3, 419-644 limits assumed: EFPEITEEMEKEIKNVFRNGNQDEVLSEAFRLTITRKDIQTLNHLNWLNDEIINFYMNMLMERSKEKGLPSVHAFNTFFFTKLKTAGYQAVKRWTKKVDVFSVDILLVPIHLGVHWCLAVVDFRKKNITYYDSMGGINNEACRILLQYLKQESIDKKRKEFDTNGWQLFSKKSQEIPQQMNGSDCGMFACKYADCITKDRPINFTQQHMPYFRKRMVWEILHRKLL

molecular target: Sentrin-specific protease 1 (Homo sapiens) (UniProt Q9P0U3); assay: human SENP1 catalytic domain inhibitors, primary screen, biochemical, FRET, uHTS (AID 624204); details: recombinant SENP1 catalytic domain, CyPet-SUMO1-YPet FRET cleavage; at 10 µM; hits give high values;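 also: 0% = enzyme with DMSO and 100% = no enzyme wells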

| Compound | inhibition |
| --- | --- |
| CCC(=O)N(c1ccccc1)C1(COC)CCN(CCn2nnn(CC)c2=O)CC1 | inactive: 0.832% |
| CCC(=O)N(c1ccccc1)C1(COC)CCN(CCc2cccs2)CC1 | inactive: -0.695% |
